Measurements as given in PMC8691596.

Chains of the proteins cited; added tags and fusions are not shown. A change or cut given only in a name is not applied to a line headed by its entry. A line that says so, or that is headed by a name, gives the form on record, which may keep a tag or linker.
UniProt O75015: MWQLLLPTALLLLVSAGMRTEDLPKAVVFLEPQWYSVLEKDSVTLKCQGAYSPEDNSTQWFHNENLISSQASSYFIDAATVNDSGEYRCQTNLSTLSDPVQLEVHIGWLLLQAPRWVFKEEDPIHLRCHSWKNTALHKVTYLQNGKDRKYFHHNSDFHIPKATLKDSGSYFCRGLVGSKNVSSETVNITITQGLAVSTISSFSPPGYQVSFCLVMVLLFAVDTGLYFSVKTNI
anti-CD3 (muromonab variable regions) human IgG1 wild type reference (human), light, as listed by the source, chain 2 of 2: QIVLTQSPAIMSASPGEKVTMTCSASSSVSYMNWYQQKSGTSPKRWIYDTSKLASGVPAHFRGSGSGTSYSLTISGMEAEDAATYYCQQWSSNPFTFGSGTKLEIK
anti-CD52 (alemtuzumab variable regions) human IgG1 wild type reference (human), light, as listed by the source, chain 2 of 2: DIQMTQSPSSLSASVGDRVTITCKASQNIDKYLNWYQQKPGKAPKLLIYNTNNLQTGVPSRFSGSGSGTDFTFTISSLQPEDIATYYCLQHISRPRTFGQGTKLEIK
anti-CD20 (rituximab variable regions) human IgG1 wild type reference (human), light, as listed by the source, chain 2 of 2: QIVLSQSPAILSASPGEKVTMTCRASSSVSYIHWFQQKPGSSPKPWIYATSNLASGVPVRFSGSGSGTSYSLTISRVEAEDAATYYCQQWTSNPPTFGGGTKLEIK
anti-CD20 (rituximab variable regions) human IgG1 wild type reference (human), heavy, as listed by the source, chain 1 of 2: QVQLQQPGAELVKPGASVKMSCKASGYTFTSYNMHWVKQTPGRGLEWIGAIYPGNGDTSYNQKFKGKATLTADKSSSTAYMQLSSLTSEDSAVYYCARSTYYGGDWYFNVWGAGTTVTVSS
anti-CD52 (alemtuzumab variable regions) human IgG1 wild type reference (human), heavy, as listed by the source, chain 1 of 2: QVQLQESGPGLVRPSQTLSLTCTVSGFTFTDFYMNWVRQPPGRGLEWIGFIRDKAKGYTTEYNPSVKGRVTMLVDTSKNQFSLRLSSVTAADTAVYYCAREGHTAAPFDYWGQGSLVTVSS

Experiments:
[1] = biological target: human FcγRIIIa (CD16a) V158 allele, histidine-tagged recombinant (human) (UniProt P08637); test: SPR; His-tagged Fc receptor captured by anti-histidine antibody immobilised on CM5; antibody injected at 100 μg/mL for 1 min; response about 5 s before end of injection, blank subtracted; 25°C, HBS-EP+; Biacore T200
[2] = biological target: human FcγRIIIb (CD16b) NA2 allele, histidine-tagged recombinant (human) (UniProt O75015); test: as above
[3] = biological target: rat FcγRI (CD64), histidine-tagged recombinant (rat); test: as above
[4] = biological target: human FcγRIIIa (CD16a) F158 allele, histidine-tagged recombinant (human) (UniProt P08637); test: as above
[5] = biological target: anti-CD20 (rituximab variable regions) human IgG1 wild type reference (human); test: ELISA; antibody coated at 10 μg/mL on Maxisorp plates; HRP-labelled C1q at 100 ng/mL; room temperature
[6] = biological target: anti-CD20 IgG1 L234A/L235A/P329G (LALAPG) (human); test: as above
[7] = biological target: anti-CD20 IgG1 L234G/L235S/G236R (human); test: as above
[8] = biological target: anti-CD20 IgG1 L234S/L235T/G236R (human); test: as above
[9] = biological target: anti-CD20 IgG1 L234S/L235V/G236R (human); test: as above
[10] = biological target: anti-CD20 IgG1 L234T/L235Q/G236R (human); test: as above
[11] = biological target: anti-CD20 IgG1 L234T/L235T/G236R (human); test: as above
[12] = biological target: anti-CD3 (muromonab variable regions) human IgG1 wild type reference (human); test: as above
[13] = biological target: anti-CD3 IgG1 L234A/L235A (LALA) (human); test: as above
[14] = biological target: anti-CD3 IgG1 L234A/L235A/P329G (LALAPG) (human); test: as above
[15] = biological target: anti-CD3 IgG1 L234G/L235S/G236R (human); test: as above
[16] = biological target: anti-CD3 IgG1 L234S/L235T/G236R (human); test: as above
[17] = biological target: anti-CD3 IgG1 L234S/L235V/G236R (human); test: as above
[18] = biological target: anti-CD3 IgG1 L234T/L235Q/G236R (human); test: as above
[19] = biological target: anti-CD3 IgG1 L234T/L235T/G236R (human); test: as above
[20] = biological target: anti-CD3 IgG1 N297Q (aglycosyl) (human); test: as above
[21] = biological target: anti-CD52 (alemtuzumab variable regions) human IgG1 wild type reference (human); test: as above

Substance: anti-CD3 (muromonab variable regions) human IgG1 wild type reference (antibody)
- mean response [1]: 692 RU
- mean response [2]: 145 RU
- mean response [3]: 790 RU

Substance: anti-CD3 (muromonab variable regions) human IgG1 wild type reference (antibody; other documents disagree on this pair)
- mean response [4]: 260 RU

Substance: human C1q, HRP-labelled (from UniProt P02745 23-245; P02746 28-253; P02747 29-245) (complex)
- mean normalised absorbance (% of wild-type reference) [5]: 100%
- mean normalised absorbance (% of wild-type reference) [6]: 4.5%
- mean normalised absorbance (% of wild-type reference) [7]: 3.2%
- mean normalised absorbance (% of wild-type reference) [8]: 3.3%
- mean normalised absorbance (% of wild-type reference) [9]: 4%
- mean normalised absorbance (% of wild-type reference) [10]: 4.2%
- mean normalised absorbance (% of wild-type reference) [11]: 3.7%
- mean normalised absorbance (% of wild-type reference) [12]: 100%
- mean normalised absorbance (% of wild-type reference) [13]: 9.3%
- mean normalised absorbance (% of wild-type reference) [14]: 8.5%
- mean normalised absorbance (% of wild-type reference) [15]: 9.1%
- mean normalised absorbance (% of wild-type reference) [16]: 8.4%
- mean normalised absorbance (% of wild-type reference) [17]: 7.9%
- mean normalised absorbance (% of wild-type reference) [18]: 8.3%
- mean normalised absorbance (% of wild-type reference) [19]: 8.6%
- mean normalised absorbance (% of wild-type reference) [20]: 9.3%
- mean normalised absorbance (% of wild-type reference) [21]: 100%
